Results reported in article PMC8434007 (Molecules, 2021).

Molecular target: T1, bovine thrombin (Bos taurus, UniProt P00735)
T1 construct: purchased Sigma-Aldrich (Milan, Italy)
Experiment: biochemical

Structure (SMILES): N=C(N)N1CCC(C(=O)Nc2cccc(OCc3cc(-c4ccc(Cl)s4)on3)c2)CC1 [Compound 31]
- Ki: 15 µM
